Apparent affinities of Ab-14 variants for a coronavirus HR2 peptide

Reference: Engelhart et al. 2022, doi:10.1038/s41597-022-01779-4. File: FLAb, binding data.

Antigen: PDVDLGDISGINAS, a 14-residue peptide of the SARS-CoV-2 spike HR2 region.

Parent: Ab-14, a human scFv built as VH, a (GGGGS)3 linker, VL. Only the CDRs of the heavy chain vary.
VH: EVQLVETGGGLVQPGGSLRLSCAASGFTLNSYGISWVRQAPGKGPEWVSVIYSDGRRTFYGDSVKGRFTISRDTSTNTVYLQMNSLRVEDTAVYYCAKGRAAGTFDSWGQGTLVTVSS
VL: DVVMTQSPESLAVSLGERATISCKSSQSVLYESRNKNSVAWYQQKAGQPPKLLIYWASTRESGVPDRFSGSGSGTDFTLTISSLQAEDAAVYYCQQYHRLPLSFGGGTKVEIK

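AAYL49 was designed without a model: most single CDR substitutions and a random sample of double and triple ones. The scFvs were displayed on barcoded MATa yeast, the peptide on MATalpha yeast. The frequency of each diploid, read from paired DNA barcodes, reflects how well the two displayed proteins bind. The ratio of observed to expected reads was calibrated, replicate by replicate, on BCL2-family standards whose Kd was known from biolayer interferometry. Each pool was mated in three replicate cultures.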

Substitutions are numbered in sequence along the VH above, starting at 1 (not Kabat).
The Kd shown is the geometric mean over detected replicates; a lower Kd is a better binder.
"nd" marks a missing value. The strain was present, yet no cells mated with the target were sequenced in any replicate, which points to weak or no binding.

F27D+S35K+R56G: nd (0 of 3 replicates).
I51W+A101P+A102Q: nd (0 of 3 replicates).
K65H+G99I+R100H: 6.6 µM (1 of 3 replicates).
L29D+G61Y+A102F: nd (0 of 3 replicates).
G26Q+S31M+T58P: 5.4 µM (1 of 3 replicates).
N30H+S53T+R56G: 6.0 µM (1 of 3 replicates).
N30A+S35K+A101V: 440 nM (1 of 3 replicates).
L29G+I34Q+S63L: 5.5 µM (1 of 3 replicates).
R56T+T58V+R100S: 2.0 µM (3 of 3 replicates).
G26L+Y52H+Y60T: nd (0 of 3 replicates).
F27E+D54K+Y60T: 530 µM (2 of 3 replicates).
S31P+D62W+T104Q: nd (0 of 3 replicates).
S35K+R100I: nd (0 of 3 replicates).
A102R+G103K+T104Y: 250 nM (1 of 3 replicates).
S53M+G55F: nd (0 of 3 replicates).
F27A+N30L+Y60R: 480 nM (1 of 3 replicates).
L29G+G55D+A102N: 50 µM (1 of 3 replicates).
F59C+A101N: 220 nM (3 of 3 replicates).
G33M+S35K+R57F: 28 µM (1 of 3 replicates).
S35K+G61P+S107R: nd (0 of 3 replicates).
S53L+S63H+A102S: 3.1 µM (1 of 3 replicates).
K65L+G103V: nd (0 of 3 replicates).

Further variants, results first:

36 µM (3 of 3 replicates) for Y60E+S63K+T104H.
53 nM (3 of 3 replicates) for K65M+D106R.
3.7 nM (3 of 3 replicates) for I34V+A101I.
100 µM (1 of 3 replicates) for T28R+K65M+A102E.
nd (0 of 3 replicates) for R57N+G103P+S107M.
nd (0 of 3 replicates) for L29C+S31E+A102Q.
nd (0 of 3 replicates) for F59I+V64T.
nd (0 of 3 replicates) for I34C+I51M+F105K.
12 µM (2 of 3 replicates) for L29G+F59Q+K65V.
nd (0 of 3 replicates) for G55S+R56W+G99V.
210 µM (2 of 3 replicates) for N30C+T58W+K65I.
nd (0 of 3 replicates) for Y32E+R100D+T104G.
93 nM (3 of 3 replicates) for G26I+F27N.
3.1 µM (1 of 3 replicates) for N30Y+I34H+G103E.
nd (0 of 3 replicates) for D54T+D62N.
nd (0 of 3 replicates) for S31E+V50M+G103Y.
nd (0 of 3 replicates) for Y52E+G55Q+F59S.
430 nM (3 of 3 replicates) for Y60F+G103Y.
nd (0 of 3 replicates) for N30F+Y52V+Y60F.
nd (0 of 3 replicates) for Y52S+R56W+D106T.
210 µM (2 of 3 replicates) for V50G+G61V+D62P.
nd (0 of 3 replicates) for T28I+Y32R+S53G.
nd (0 of 3 replicates) for T28V+I34R+D54F.

Excerpt, the final 6 entries:

changes,Kd,detected
Y60F+G103Y,430 nM,3/3
N30F+Y52V+Y60F,nd,0/3
Y52S+R56W+D106T,nd,0/3
V50G+G61V+D62P,210 µM,2/3
T28I+Y32R+S53G,nd,0/3
T28V+I34R+D54F,nd,0/3

In this assay the parent's reference entry averaged 4.4 nM; its copy inside this library read 13 µM (one replicate of three).
Three control strains display no target. For library AAYL49, 15% of the pairings with them gave a signal, with a median of 11 µM and one signal in twenty below 680 nM, so weak values seen in few replicates may be background.